# Ab-14 heavy chain CDR variants: yeast mating affinities

The measurements come from Engelhart et al. 2022 (doi:10.1038/s41597-022-01779-4) through the FLAb antibody collection.

Antigen: PDVDLGDISGINAS, a 14-residue peptide of the SARS-CoV-2 spike HR2 region.

The variants keep the light chain, the linker and the frameworks of Ab-14 (scFv order VH, three GGGGS repeats, VL).
VH: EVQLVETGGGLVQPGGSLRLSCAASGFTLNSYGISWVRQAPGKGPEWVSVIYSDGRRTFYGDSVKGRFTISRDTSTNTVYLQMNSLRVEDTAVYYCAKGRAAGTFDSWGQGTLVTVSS
VL: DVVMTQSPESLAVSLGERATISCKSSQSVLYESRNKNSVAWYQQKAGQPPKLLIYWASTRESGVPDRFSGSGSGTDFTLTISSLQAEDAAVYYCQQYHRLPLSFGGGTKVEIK

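The starting antibody came from a phage panning campaign against this peptide. AAYL49 was designed without a model: most single CDR substitutions and a random sample of double and triple ones. AlphaSeq pools MATa yeast showing the antibodies with MATalpha yeast showing the peptide. The frequency of each diploid, read from paired DNA barcodes, reflects how well the two displayed proteins bind. Scores were corrected for input abundance and mapped to Kd with protein pairs of known affinity run in the same pool. The assay was run in three technical replicates.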

The parent's heavy chain CDRs are GFTLNSYGIS, VIYSDGRRTFYGDSVK, GRAAGTFDS; each variant's own CDRs replace them letter for letter.
Scale: log10 of Kd in nM, estimated from mating counts; low values are strong binders.
Replicates are averaged; those with no signal do not enter the mean.
An entry "n.d." has no value in the source: the pair was not observed among the diploids in that replicate. This suggests poor binding but is not conclusive.
Parent in this assay: reference entry 0.65, copy in this library 4.11 (one replicate of three).

| # | CDR-H1 | CDR-H2 | CDR-H3 | log10 Kd, replicates | mean log10 Kd (nM) | control signals |
|---|---|---|---|---|---|---|
| 1 | CFTLNSYWIS | VIYSDGRRTFYGDSVK | GRAAGTADS | n.d. / 3.14 / 2.81 | 2.98 | 1 of 9 (2.77) |
| 2 | NFTLNDYGIS | VIYSDCRRTFYGDSVK | GRAAGTFDS | n.d. / n.d. / 5.36 | 5.36 | 1 of 9 (3.75) |
| 3 | GFTLNSYGIP | VIYSDGRRTFYGDSVK | GRLAETFDS | 5.58 / 4.21 / n.d. | 4.90 | 5 of 9 (4.87) |
| 4 | GFTYNSYGIS | VIYSDGRRTFYRDSVD | GRAAGTFDS | 4.11 / n.d. / n.d. | 4.11 | 1 of 9 (2.91) |
| 5 | GFTLASYGIS | VIYSDGRRTFYGDSVK | GRAAGTFSS | 1.29 / 1.56 / 0.92 | 1.26 | 0 of 9 |
| 6 | GFTLNSYGIS | VIQSDGRRCFYGDSLK | GRAAGTFDS | n.d. / n.d. / n.d. | n.d. | 0 of 9 |
| 7 | GFTLPSYGIC | VKYSDGRRTFYGDSVK | GRAAGTFDS | 3.55 / 3.33 / 4.27 | 3.71 | 4 of 9 (4.22) |
| 8 | GFTLNSYGIS | MIYSDGRRTFYGDSVF | GRAAGTFDL | n.d. / 3.96 / n.d. | 3.96 | 2 of 9 (5.11) |
| 9 | GFTLNLYGIS | VIYSDGRRTFYGNSVK | GRAAYTFDS | n.d. / n.d. / n.d. | n.d. | 0 of 9 |
| 10 | GFTLKSYGIS | VIYSDGRRTFYGDCVK | GRAARTFDS | n.d. / n.d. / n.d. | n.d. | 0 of 9 |
| 11 | GFTLPSYGIS | VIYSMGRRTFYHDSVK | GRAAGTFDS | 5.16 / 5.22 / n.d. | 5.19 | 3 of 9 (3.83) |
| 12 | GFTLNSYGIS | GIYSDGRRTRYGDSVK | CRAAGTFDS | 5.80 / 5.37 / 5.17 | 5.45 | 6 of 9 (4.81) |
| 13 | GFTLNSYGIS | VIYSDGWRTVYGQSVK | GRAAGTFDS | n.d. / 2.34 / 2.60 | 2.47 | 0 of 9 |
| 14 | GFTWNSYGIS | VIYSDGRRTFYGDSVK | GDAAGTFDL | n.d. / 3.65 / n.d. | 3.65 | 0 of 9 |
| 15 | GFTLNSYGES | VIYSDGRRTFYGDSVK | GSAAGTFAS | n.d. / 5.07 / n.d. | 5.07 | 1 of 9 (3.93) |
| 16 | GFTLNSYGIS | VIWSPGRRTFYGDSVK | GRAAGTFDS | n.d. / n.d. / 4.19 | 4.19 | 0 of 9 |
| 17 | GFTLNSYGIS | VIYPDTARTFYGDSVK | GRAAGTFDS | n.d. / n.d. / n.d. | n.d. | 0 of 9 |
| 18 | GFTLCSYGIS | VIYSDGRRTFYGDSPK | GRAAGCFDS | n.d. / n.d. / n.d. | n.d. | 0 of 9 |
| 19 | GFTLNSYGIS | VIYSDGRSTFYGDSVK | GRAAGTFDS | n.d. / n.d. / n.d. | n.d. | 0 of 9 |
| 20 | GFTLNSYGIS | VIYSVGRRTDYGDSVK | GRAAGTFDS | n.d. / n.d. / n.d. | n.d. | 1 of 9 (4.18) |
| 21 | GFTLNAYGYS | VIYSDGRRTFYGDSVK | GRAAGWFDS | 4.30 / 3.89 / n.d. | 4.09 | 2 of 9 (3.99) |
| 22 | GFTLNSYGIS | VIYSDGRRTFYGDSVK | GRDAHTFDS | n.d. / 3.59 / 5.51 | 4.55 | 3 of 9 (3.45) |
| 23 | GFTLNIYGIS | VIYSDGRCTFYGDDVK | GRAAGTFDS | n.d. / n.d. / n.d. | n.d. | 1 of 9 (3.60) |
| 24 | GFTLNSYGIS | VIYSDGRRTFYGDSGK | GRAGRTFDS | n.d. / n.d. / n.d. | n.d. | 0 of 9 |
| 25 | GFTLNSYGIS | VIYSDGRRTFPGDSVK | GRAAGTFDS | n.d. / 3.87 / 5.72 | 4.79 | 3 of 9 (4.30) |
| 26 | GITLCSYGIS | VIYSDGRFTFYGDSVK | GRAAGTFDS | n.d. / n.d. / n.d. | n.d. | 2 of 9 (4.89) |
| 27 | GFTLNSYGIS | VIYSDGRRTFYGDTVK | GRAAITFDS | n.d. / n.d. / 2.80 | 2.80 | 0 of 9 |
| 28 | GFWLNAYGIS | VIYSDGRRTFYGDSVT | GRAAGTFDS | 2.29 / 2.13 / 2.16 | 2.19 | 1 of 9 (4.10) |
| 29 | GFTLNSYGIS | VCYSDGRRTFYGDVKK | GRAAGTFDS | 5.63 / n.d. / n.d. | 5.63 | 2 of 9 (4.48) |
| 30 | GKTLNSYGIS | VIMSDGRRTFYHDSVK | GRAAGTFDS | n.d. / n.d. / n.d. | n.d. | 2 of 9 (4.49) |
| 31 | SFTLNSYGIS | VIYSDGRRTFYGDSVK | GRAAGTFDS | 1.01 / 1.11 / 1.02 | 1.05 | 1 of 9 (4.85) |
| 32 | HFTLNSYGIS | VIYFDGRRTFYGDSVK | GRAAGTFDE | n.d. / n.d. / n.d. | n.d. | 0 of 9 |
| 33 | GFYLNCYGIS | VIYSDGRRTFYGDSYK | GRAAGTFDS | 3.70 / 2.71 / 3.94 | 3.45 | 6 of 9 (4.63) |
| 34 | GTTLWSYGIS | VIYSDGRRTFYGDSVK | IRAAGTFDS | 3.87 / n.d. / n.d. | 3.87 | 3 of 9 (3.81) |
| 35 | GWTLNSYGIS | VDYSDGLRTFYGDSVK | GRAAGTFDS | n.d. / n.d. / n.d. | n.d. | 1 of 9 (3.49) |
| 36 | GFTLNSYGIS | VMYSDGRRAFYGDSVK | GRANGTFDS | n.d. / n.d. / n.d. | n.d. | 0 of 9 |
| 37 | GFTLVSYGIS | VIYPDGRRTFGGDSVK | GRAAGTFDS | 3.95 / 4.05 / n.d. | 4.00 | 7 of 9 (4.61) |
| 38 | GFVLNSRGIS | VIYSKGRRTFYGDSVK | GRAAGTFDS | n.d. / 4.39 / 4.52 | 4.46 | 1 of 9 (3.20) |
| 39 | SFTLNSYGIS | VIHSDGRRTFYGDSVK | GRAAGTVDS | n.d. / n.d. / n.d. | n.d. | 2 of 9 (3.62) |
| 40 | GFTLNSYGVS | VIYSDGRRTFYGDSVK | GRAAGTFDS | n.d. / n.d. / n.d. | n.d. | 1 of 9 (1.35) |
| 41 | GFTLNSYGIS | MIYSDGFRTFYGDSVK | GRAAGTFNS | n.d. / n.d. / n.d. | n.d. | 1 of 9 (3.71) |
| 42 | GFTLESYGLS | VIYSDGRRTFYGDSVK | GRAAHTFDS | 4.15 / n.d. / n.d. | 4.15 | 2 of 9 (3.63) |
| 43 | GFTLVSYGKS | VIYSDGRRTFYGDSVK | GRACGTFDS | n.d. / n.d. / n.d. | n.d. | 1 of 9 (3.33) |

Again, the first 5 entries without any signal:

CDR-H1	CDR-H2	CDR-H3	log10 Kd, replicates	mean log10 Kd (nM)	control signals
GFTLNSYGIS	VIQSDGRRCFYGDSLK	GRAAGTFDS	n.d. / n.d. / n.d.	n.d.	0 of 9
GFTLNLYGIS	VIYSDGRRTFYGNSVK	GRAAYTFDS	n.d. / n.d. / n.d.	n.d.	0 of 9
GFTLKSYGIS	VIYSDGRRTFYGDCVK	GRAARTFDS	n.d. / n.d. / n.d.	n.d.	0 of 9
GFTLNSYGIS	VIYPDTARTFYGDSVK	GRAAGTFDS	n.d. / n.d. / n.d.	n.d.	0 of 9
GFTLCSYGIS	VIYSDGRRTFYGDSPK	GRAAGCFDS	n.d. / n.d. / n.d.	n.d.	0 of 9

Background: pairings of library AAYL49 with three empty control strains gave a value in 15% of cases (median 4.06, 5th percentile 2.83). Values in that range, when seen in few replicates, are hard to tell from nonspecific mating. Also given: how often the same scFv was detected with the empty control strains, with their mean in brackets.